# Test results published in PubChem BioAssay AID602274 (Sanford-Burnham Center for Chemical Genomics, 2012).
# The list shows a part of the results, in another mix than the full data. Calls of active or inactive are those of the source. No stated cut-off is given here; in the data, active means survival enhancement above about 18%; inactive means the rest.
# Test: enhancers of single-cell hiPSC survival, primary screen, ATPlite luminescence (AID 602274);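 further: cells exposed to compounds for 16 hours before the ATP read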
# Settings: at 20 µM, stronger effect = higher value, 100% = ROCK inhibitor wells, 0% = DMSO
row,SMILES,survival enhancement
1,COc1ccc(C(=O)NCC2(N3CCCCC3)CCCCC2)c(OC)c1OC,inactive: 2%
2,CC(C)(C)OC(=O)N1CCC(N(C(=O)c2ccccc2)c2ccc(F)cc2)CC1,inactive: 0%
3,COc1ccc(C(=O)NCC2(N3CCCCC3)CCCCC2)cc1,inactive: -0.4%
4,CCCCn1nnnc1C(c1cccs1)N1CCC(n2c(=O)[nH]c3ccccc32)CC1 (configuration not stated),inactive: -0.8%
5,CCCCn1nnnc1C(CC)N1CCC(n2c(=O)[nH]c3ccccc32)CC1 (configuration not stated),inactive: 1.9%
6,O=C(NCC1(N2CCCCC2)CCCCC1)c1cccs1,inactive: -0.5%
7,O=C(NCC1(N2CCCCC2)CCCCC1)c1ccc(=O)[nH]c1,inactive: 0.4%
8,COc1cc(C(=O)NCC2(N(C)C)CCCCC2)ccc1OC(F)F,inactive: -0.4%
9,CCOC(=O)N1CCC(Nc2cccc(C)c2)CC1,inactive: 0.4%
10,O=c1[nH]c2ccccc2n1C1CCN(C(c2cccc3ccccc23)c2nnnn2C2CCCC2)CC1 (configuration not stated),inactive: -0.8%
11,O=c1[nH]c2ccccc2n1C1CCN(C(c2ccccc2)c2nnnn2C2CCCCC2)CC1 (configuration not stated),inactive: 0.5%
12,CCOC(=O)N1CCC(Nc2ccc(F)cc2)CC1,inactive: 1%
13,COc1ccc(NC2CCN(CCc3ccccc3)CC2)c(OC)c1,inactive: -1.5%
14,O=C(NCC1(N2CCCCC2)CCCCC1)c1ccc(F)cc1,inactive: -0.3%
15,CCCCOc1ccc(C(=O)NCC2(N3CCOCC3)CCCCC2)cc1,inactive: -0.2%
16,CCCCn1nnnc1C(c1cc2ccccc2o1)N1CCC(n2c(=O)[nH]c3ccccc32)CC1 (configuration not stated),inactive: -1.8%
17,O=P1(N(CCCl)CCCl)SCCCS1,inactive: 3%
18,O=C1CCN(Cc2ccccc2)CC1,inactive: 2.7%
19,CC(C)(C)n1nnnc1C(c1ccccc1)N1CCC(n2c(=O)[nH]c3ccccc32)CC1 (configuration not stated),inactive: 0.3%
20,CCOc1ccc(C)cc1CN(CCCl)CCCl,inactive: 0.2%
21,O=C(NCC1(N2CCOCC2)CCCCC1)c1cc(=O)[nH]c2ccccc12,inactive: -0.2%
22,COc1cc(C(=O)NCC2(N3CCCCC3)CCCCC2)ccc1OC(F)F,inactive: -0.1%
23,CCCCn1nnnc1C(c1cccc2ccccc12)N1CCC(n2c(=O)[nH]c3ccccc32)CC1 (configuration not stated),inactive: 1.2%
24,COc1ccc(NC2CCN(C(=O)OC(C)(C)C)CC2)cc1,inactive: 2.6%

row,SMILES,survival enhancement
1,CC(C)c1ccc(C(=O)NCC2(N3CCOCC3)CCCCC2)cc1,inactive: 0.6%
2,CN1CCN(CCOC(=O)C(O)(c2ccccc2)c2ccccc2)CC1,inactive: 2.6%
3,O=C(NCC1(N2CCCCC2)CCCCC1)c1cccc(C(F)(F)F)c1,inactive: -0.5%
4,N#CC1(Nc2ccccc2)CCN(CCc2ccccc2)CC1,inactive: 3.2%
5,O=c1[nH]c2ccccc2n1C1CCN(C(c2ccccc2OC(F)(F)F)c2nnnn2C2CCCC2)CC1 (configuration not stated),inactive: 1.1%
6,CCN1CCC(Nc2ccc(Cl)cc2)CC1,inactive: -0.1%
7,O=C(NCC1(N2CCCCC2)CCCCC1)c1cccc([N+](=O)[O-])c1,inactive: 1.6%
8,CSc1ccc(C(=O)NCC2(N3CCOCC3)CCCCC2)cc1,inactive: 0%
9,O=C(NCC1(N2CCCCC2)CCCCC1)c1ccc(OC(F)F)cc1,inactive: 0.2%
10,CC(C)(C)n1nnnc1C(c1ccccc1OC(F)(F)F)N1CCC(n2c(=O)[nH]c3ccccc32)CC1 (configuration not stated),inactive: 4.8%
11,COc1ccc(C(c2nnnn2C2CCCC2)N2CCC(n3c(=O)[nH]c4ccccc43)CC2)cc1 (configuration not stated),inactive: -0.7%
12,CCCOc1ccc(C(=O)NCC2(N(C)C)CCCCC2)cc1OC,inactive: -0.3%
13,Cc1ccc(C(=O)NCC2(N(C)C)CCCCC2)o1,inactive: 3.3%
14,O=C(NCC1(N2CCCCC2)CCCCC1)c1cncc(Br)c1,inactive: -0.5%
15,CN1CCC(Nc2cccc(F)c2)CC1,inactive: -0.5%
16,O=C(NCC1(N2CCOCC2)CCCCC1)c1cc(F)c(F)cc1Cl,inactive: 0.4%
17,CCC(c1nnnn1C(C)(C)C)N1CCC(n2c(=O)[nH]c3ccccc32)CC1 (configuration not stated),inactive: -0.8%
18,COc1cc(OC)c(C(=O)NCC2(N(C)C)CCCCC2)cc1OC,inactive: 1.7%
19,CCCCn1nnnc1C(c1ccnc2ccccc12)N1CCC(n2c(=O)[nH]c3ccccc32)CC1 (configuration not stated),inactive: 0.3%
20,CCCCn1nnnc1C(c1ccccc1OC(F)(F)F)N1CCC(n2c(=O)[nH]c3ccccc32)CC1 (configuration not stated),inactive: 1.3%
21,CC(C)c1ccc(NC2CCN(C(=O)OC(C)(C)C)CC2)cc1,inactive: 0.3%
22,CN(C)c1cccc(C(=O)NCC2(N3CCCCC3)CCCCC2)c1,inactive: 0.2%
23,COc1ccc(CN(CCCl)CCCl)cc1Cl,inactive: 0.9%
